# Apparent affinities of Ab-14 variants for a coronavirus HR2 peptide

Source: Li et al. 2023 (doi:10.1038/s41467-023-39022-2), MIT Lincoln Laboratory and A-Alpha Bio; data file from the FLAb repository.

The target is the same throughout: PDVDLGDISGINAS, from the HR2 region of SARS-CoV-2 spike.

Parent scFv Ab-14: VH joined to VL by the linker GGGGSGGGGSGGGGS. Changes lie in the light chain CDRs alone.
VH: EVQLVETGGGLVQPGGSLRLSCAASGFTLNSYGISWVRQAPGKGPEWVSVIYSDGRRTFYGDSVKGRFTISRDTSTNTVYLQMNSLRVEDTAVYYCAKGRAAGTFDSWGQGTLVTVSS
VL: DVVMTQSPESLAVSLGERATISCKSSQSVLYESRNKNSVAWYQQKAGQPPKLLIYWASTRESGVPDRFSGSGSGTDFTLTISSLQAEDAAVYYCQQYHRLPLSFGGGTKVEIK

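The starting antibody came from a phage panning campaign against this peptide. These sequences belong to a second round, designed from the earlier measurements on random variants of the parent. Group labels follow the data file (Ctrl: baseline library sampled from a position-specific scoring matrix, with some repeated check sequences; En: ensemble of fine-tuned language models; GP: Gaussian process model; GPLM: also part of the Gaussian process libraries; HC: hill climbing; Gen: genetic algorithm; Gibbs: Gibbs sampling; a sequence that several methods proposed may carry one label only). The assay is AlphaSeq: two haploid yeast populations carry antibody and antigen on their surface. Binding brings cells together so that they mate, and sequencing counts the barcode pairs among the diploids. The ratio of observed to expected reads was calibrated, replicate by replicate, on BCL2-family standards whose Kd was known from biolayer interferometry. Mating was done six times.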

The parent's light chain CDRs are KSSQSVLYESRNKNSVA, WASTRES, QQYHRLPLS; each variant's own CDRs replace them letter for letter. The Kd shown is the geometric mean over detected replicates; a lower Kd is a better binder. Of ten entries with the parent sequence, four were seen in most replicates (averages 2.2 nM to 240 nM), three in one and three in none, so single entries are noisy.

The variant KMSQSEDYEDRNCNAVA / SASQREE / QQYHRLPLS [GP_Gibbs] gave 1.7 nM (6 of 6 replicates).
The variant KSSQSFLYESRQKNSVA / NASQRES / QQYHRLPLS [GP_HC] gave 1.9 nM (6 of 6 replicates).
The variant KLSQSMPYEQRNKNSVA / NASQRES / QCYHRLPLS [GP_Gibbs] gave 3.1 nM (6 of 6 replicates).
The variant MISQLMNMGTFAINSVA / QASLRNE / QQYDRLPLI [En_Gen] gave 36 nM (6 of 6 replicates).
The variant KLMQSVLYESRNKNSVA / NASQRED / QQYHRLPLS [GP_Gen] gave 600 pM (6 of 6 replicates).
The variant KLSQSDCYEDRNLNNVA / HASTRES / QQYHRLPLM [GP_Gibbs] gave 930 pM (6 of 6 replicates).
The variant KLVWSDLYESRNKNNVA / GVSQRES / QQYHRLPLS [GP_Gibbs] gave 290 pM (6 of 6 replicates).
The variant KASQSVLYESRNKNSVA / WASTRES / QQYHRLPLY [Ctrl] gave 11 nM (6 of 6 replicates).
The variant KLPQSVLYESRNKNSVA / HASTRES / QQYHRLPLS [GP_Gen] gave 790 pM (6 of 6 replicates).
The variant KSSISQLGEQRNKNSVA / DISTRES / QQYHRLPLS [GP_HC] gave 2.7 nM (6 of 6 replicates).
The variant KQSQSVLYGERNGNSVA / NASQRLS / QQYHRLPLS [GP_Gibbs] gave 36 nM (6 of 6 replicates).
The variant NMQLQVRNGENNKYNIA / AEMKRVY / QQYQRLPLM [En_Gibbs] gave 32 nM (6 of 6 replicates).
The variant KIGQQVTYESTIKNAIA / QMTTREE / QQYHRLPLS [En_HC] gave 1.8 nM (6 of 6 replicates).
The variant HMSALTLQGMRHRNSVA / QMTTREN / QQYDHLPLS [En_Gen] gave 25 nM (6 of 6 replicates).
The variant TLGQSTMVESYNKNSVA / QANTREE / QDYHRLPLS [En_HC] gave 68 nM (2 of 6 replicates).
The variant KSSQSRLYESRNKNSVA / GASTRES / QQYHRLPLS [GPLM_HC] gave 1.4 nM (6 of 6 replicates).
The variant MISQLFMYGSRNVNSVA / QASTRES / QQYDRLPLI [En_HC] gave 13 nM (6 of 6 replicates).
The variant KSQQSYEYESRNKNSVA / HASTRED / QQYHRLPLS [GP_HC] gave 780 pM (6 of 6 replicates).
The variant KLSQSDLYESRNKNSVA / EASTRSS / QQYHRLPLS [GP_Gen] gave 5.7 nM (6 of 6 replicates).
The variant KLSQSVLYESRNKNSVA / NASTRES / QSYHRLPLS [GP_Gen] gave 750 pM (6 of 6 replicates).
The variant KISMTSENQLKNRNSVA / ELVTRLN / QQYNRLPLS [En_Gen] gave 4.9 nM (6 of 6 replicates).
The variant QLPEVDSGDTLSQGAIA / HAAELVD / QQYFRLPLL [En_Gibbs] gave 2.9 nM (6 of 6 replicates).
The variant KLSATYRYESQNKNSIA / EMSTRAS / QCYHRLPLS [En_HC] gave 35 nM (6 of 6 replicates).
The variant KLSQSVEQEERNKNSVA / HASVREV / QQYHRLPLS [GP_Gibbs] gave 2.5 nM (6 of 6 replicates).
The variant IFSQSVLMGNLTKNSVA / QASTRFQ / QQYHRLPLI [En_HC] gave 46 nM (6 of 6 replicates).
The variant KLRQSTLYESRNKNSVA / WASTRES / QQYHRLPLS [En_HC] gave 2.5 nM (6 of 6 replicates).
The variant KISMLQRFQSNAKNNIA / EMNRREE / QQYHRLPLS [En_HC] gave 4.5 nM (6 of 6 replicates).
The variant KLSQSVLYESRLANSVA / WASDRES / QQYHRLPLS [Ctrl] gave 15 nM (6 of 6 replicates).
The variant TLYGLSNSMSINKNNVA / EMTTREK / QQYDRLPLI [En_Gen] gave 26 nM (6 of 6 replicates).
The variant TISQSVMMTGLNRNSVA / QAEERIE / QQYHRLPLS [En_HC] gave 39 nM (6 of 6 replicates).
The variant TIGQTLMIGTRNRSNVA / EVSQRLN / QQYDRLPLM [En_Gen] gave 6.8 nM (6 of 6 replicates).
The variant KSLGSMLYESRNKNSVA / HASTRED / QQYHRLPLS [GP_HC] gave 780 pM (6 of 6 replicates).
The variant KLSQSELYESRNKNSVA / EASQRES / QQYHRLPLS [GP_Gen] gave 900 pM (6 of 6 replicates).
The variant ALAYTLHQNESNQSNIA / QVQEREV / QQYYRLPLG [En_Gibbs] gave 220 nM (1 of 6 replicates).
The variant HLSWMVLYESRNKNSVA / NASTRES / QQYHRLPLS [GP_HC] gave 690 pM (6 of 6 replicates).
The variant KLPHLSFVHDREKNNVA / DLNRKAA / QQYDRLPLA [En_Gibbs] gave 2.0 nM (6 of 6 replicates).
The variant KISQGVLYESRNKNSVA / WASTRES / QQYHRLPLS [Ctrl] gave 15 nM (6 of 6 replicates).

Picked from the list: the 6 lowest averages where every replicate gave a value.

CDR-L1	CDR-L2	CDR-L3	group	Kd	detected
KLVWSDLYESRNKNNVA	GVSQRES	QQYHRLPLS	GP_Gibbs	290 pM	6/6
KLMQSVLYESRNKNSVA	NASQRED	QQYHRLPLS	GP_Gen	600 pM	6/6
HLSWMVLYESRNKNSVA	NASTRES	QQYHRLPLS	GP_HC	690 pM	6/6
KLSQSVLYESRNKNSVA	NASTRES	QSYHRLPLS	GP_Gen	750 pM	6/6
KSQQSYEYESRNKNSVA	HASTRED	QQYHRLPLS	GP_HC	780 pM	6/6
KSLGSMLYESRNKNSVA	HASTRED	QQYHRLPLS	GP_HC	780 pM	6/6

The authors averaged sequences with at least three values out of six and counted those with two or fewer as poor binders. Values of this round are not directly comparable with the first-round values of the same sequences. Nonspecific signal, from three strains lacking the peptide, appeared in 4% of pairings of all light chain designs, centred on 430 nM (5% of these signals below 38 nM); values are not corrected for it.